This is an account of results in publication PMC5094908 (Journal of applied toxicology : JAT, 2016).

For data set [1], the system named is LUHMES and dLUHMES cells. Conditions: 24 h exposure, 0.78 to 100 µM; for cytotoxic sensitivity ([ATP] IC50) of LUHMES and/or dLUHMES relative to the other cell lines: vs SH-SY5Y/dSH-SY5Y and NSC/dNSC; for relative cytotoxic sensitivity of LUHMES versus dLUHMES cells: [ATP].
Data set [2] has as its system SH-SY5Y. Conditions: cited from earlier work.
The test system of data set [3] is Caspase 3/7 activity in NSC and dNSC cells. The class given is cell-based, human.
In data set [4] the test system is SH-SY5Y and dSH-SY5Y cells. Conditions: 24 h exposure, [ATP], 0.78 to 100 µM.
The subject of data set [5] is NSC and dNSC cells. Conditions: 24 h exposure, [ATP], 0.78 to 100 µM.

For the compound `O=c1c(-c2ccc(O)cc2)coc2cc(O)cc(O)c12` [GEN, Genistein], in data set [1], the “cytotoxic sensitivity ([ATP] IC50) of LUHMES and/or dLUHMES relative to the other cell lines” value is given as “more sensitive than the other cell lines” and the “relative cytotoxic sensitivity of LUHMES versus dLUHMES cells” value is reported as “LUHMES cells were more sensitive than dLUHMES cells”. The “In vitro neural selectivity (effect reported in SH-SY5Y)” value in data set [2] is “Apoptotic in SHSY5Y ([Karmakar et al., 2009])”.
As to `Oc1c(Cl)cc(Cl)c(Cl)c1Cc1c(O)c(Cl)cc(Cl)c1Cl` [HCP, Hexachlorophene], in data set [3], the “increase of Caspase 3/7 activity in dNSC” value is given as “but not dNSC”. Further, in data set [4], the “cytotoxic sensitivity of dSH-SY5Y cells relative to SH-SY5Y cells” value is recorded as “slightly more sensitive”. In addition, in data set [1], the “cytotoxic sensitivity ([ATP] IC50) of LUHMES and/or dLUHMES relative to the other cell lines” value is given as “more sensitive than the other cell lines” and the “relative cytotoxic sensitivity of LUHMES versus dLUHMES cells” value is recorded as “LUHMES cells were more sensitive than dLUHMES cells”. Also, the “relative cytotoxic sensitivity of NSC versus dNSC” value in data set [5] is recorded as “NSC more sensitive than dNSC”.
